Experimental data as given in PubChem BioAssay AID1018 (Sanford-Burnham Center for Chemical Genomics, 2008).
The entries are a selection whose mix differs from that of the whole data set. Some tests of the compounds listed are not included; inactive here does not mean inactive elsewhere. Activity calls are given as the source filed them. No stated cut-off is given here; in the data, active means displacement above about 50%; inactive means the rest.

Sequences of proteins named here, by UniProt entry; tags and fusion partners are left off.
UniProt P98170, whole entry: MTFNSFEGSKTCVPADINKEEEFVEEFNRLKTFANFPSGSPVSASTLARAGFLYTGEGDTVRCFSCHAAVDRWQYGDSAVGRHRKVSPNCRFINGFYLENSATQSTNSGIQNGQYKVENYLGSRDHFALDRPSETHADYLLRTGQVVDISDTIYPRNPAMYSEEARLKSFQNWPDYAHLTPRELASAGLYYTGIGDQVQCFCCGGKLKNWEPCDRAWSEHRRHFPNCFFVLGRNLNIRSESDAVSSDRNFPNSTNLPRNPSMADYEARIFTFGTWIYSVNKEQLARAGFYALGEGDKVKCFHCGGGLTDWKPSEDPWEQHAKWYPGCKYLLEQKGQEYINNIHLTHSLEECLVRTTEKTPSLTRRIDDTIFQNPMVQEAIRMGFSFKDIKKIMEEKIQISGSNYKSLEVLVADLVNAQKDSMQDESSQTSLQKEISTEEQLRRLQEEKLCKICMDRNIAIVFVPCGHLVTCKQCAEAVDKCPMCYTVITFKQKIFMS

Target: E3 ubiquitin-protein ligase XIAP (Homo sapiens) (UniProt P98170)
Assay: small molecules displacing peptide from XIAP – biochemical, IAP family, fluorescence polarization (AID 1018)
Conditions: XIAP BIR domain, at 20 µM, hits give high values

Structure (SMILES) | displacement
CN(C)c1cccc(C(=O)NCC2(N(C)C)CCCCC2)c1 | inactive: -6.1%
O=C(OC1CN2CCC1CC2)C(CO)(c1ccccc1)c1ccccc1 (centres undefined) | inactive: -4.4%
COc1cccc(C(=O)NCC2(N3CCCCC3)CCCCC2)c1 | inactive: -3.4%
C=CCN1CCN(CCOC(=O)C(O)(c2ccccc2)c2ccccc2)CC1 | inactive: -4.1%
CCN1CCCC(OC(=O)C2(O)c3ccccc3C=Cc3ccccc32)C1 (centres undefined) | inactive: -0.8%
CN(C)C1CCCC1OC(=O)C(O)(c1ccccc1)c1ccccc1 (centres undefined) | inactive: -2.3%
Cc1ccccc1C(=O)NCC1(N2CCCCC2)CCCCC1 | inactive: -6.7%
CC(C)N1C(=O)CC2(CCN(CCOC(=O)C(O)(c3ccccc3)c3ccccc3)CC2)C1=O | inactive: -3%
O=C(NCC1(N2CCCCC2)CCCCC1)c1cc([N+](=O)[O-])ccc1Cl | inactive: 0.3%
